Reference: PubChem BioAssay AID435003 (Sanford-Burnham Center for Chemical Genomics, 2010)
This is a selection; strong and weak results do not stand in their true shares. Active and inactive are the calls of the source. Rule as the data show it: active = inhibition above about 50%; inactive = the rest.

Assay: lowers stimulated NF-kB reporter luminescence – cell-based, uHTS, TCR NF-kB activation inhibitor project, primary screen (AID 435003)
Conditions: Jurkat, PMA/ionomycin-induced NF-kB luciferase reporter, at 4 µM, stronger effect = higher value

Row | SMILES | inhibition
1 | CC1=C2N=C(C=C3N=C(C(C)=C4[N-][C@@](C)([C@@H]5N=C1[C@](C)(CCC(=O)NC[C@@H](C)OP(=O)([O-])O[C@H]1[C@@H](O)[C@@H](n6cnc7cc(C)c(C)cc76)O[C@@H]1CO)[C@H]5CC(N)=O)[C@@](C)(CC(N)=O)[C@@H]4CCC(N)=O)[C@@](C)(CC(N)=O)[C@@H]3CCC(N)=O)C(C)(C)[C@@H]2CCC(N)=O.[C-]#N.[Co+3] | inactive: -0.82%
2 | O=[N+]([O-])c1cc([N+](=O)[O-])c(Nc2nnnn2CCO)c([N+](=O)[O-])c1 | inactive: -9.67%
3 | CCCOc1ccc(NP(C)(=O)Oc2ccc(Cl)cc2)cc1 (centres undefined) | inactive: 5.68%
4 | CP(=O)(Nc1ccc(SC(F)(F)F)cc1)Oc1ccccc1 (centres undefined) | inactive: 2.83%
5 | COc1ccccc1OP(C)(=O)Nc1c(C)cccc1C (centres undefined) | inactive: 6.13%
6 | CN1CCCCC1COC(=O)C1(O)c2ccccc2CCc2ccccc21 (centres undefined) | inactive: 8.5%
7 | COc1ccccc1OP(C)(=O)Nc1ccccc1 (centres undefined) | inactive: 4.16%
8 | CP(=O)(Nc1ccccc1Br)Oc1ccccc1 (centres undefined) | inactive: 10.3%
9 | CP(=S)(Nn1cnnc1)Oc1ccccc1 (centres undefined) | inactive: 4.55%
10 | Cc1cc(C)cc(OP(C)(=O)Nc2ccc(SC(F)(F)F)cc2)c1 (centres undefined) | inactive: 9.42%
11 | CP(=O)(NC(=O)Nc1ccccc1)Oc1ccccc1 (centres undefined) | inactive: -7.67%
12 | CCc1ccc(OP(C)(=O)N2CCN(c3ccc([N+](=O)[O-])cc3)CC2)cc1 (centres undefined) | inactive: -0.427%
13 | CP(=O)(Oc1ccccc1)OC(c1ccccc1)C(F)(F)F (centres undefined) | inactive: -4.91%
14 | Cc1cccc(C)c1OP(C)(=O)Nc1ccc(SC(F)(F)F)cc1 (centres undefined) | inactive: 3.29%
15 | CP(=O)(Nc1ccc(SC(F)(F)F)cc1)Oc1ccc(Cl)cc1 (centres undefined) | inactive: 6.21%
16 | CP(=O)(Nc1ccccn1)Oc1ccc(Cl)cc1 (centres undefined) | inactive: -1.26%
17 | CCOP(C)(=S)SCC(=O)NC(C)C(=O)O (centres undefined) | inactive: 7.93%
18 | CCOC(=O)c1ccc(NP(C)(=O)Oc2ccc(OC)cc2)cc1 (centres undefined) | inactive: -8.46%
19 | O=[N+]([O-])c1cc([N+](=O)[O-])c(O)c([N+](=O)[O-])c1.c1ccc(Oc2ccncc2)cc1 | inactive: -10.2%
20 | CCN(CC)CCCOC(=O)C(O)(c1ccccc1)c1ccccc1 | inactive: 0.514%
21 | Cc1cccc(C)c1OP(C)(N)=O (centres undefined) | inactive: -10.9%
22 | CC(C)(C)c1ccc(OP(C)(=O)Nc2ccc(SC(F)(F)F)cc2)cc1 (centres undefined) | inactive: 0.963%
23 | O=[N+]([O-])c1cc([N+](=O)[O-])c(Nc2cccnc2)c([N+](=O)[O-])c1 | inactive: -20.1%
24 | COc1ccc(OP(C)(=O)Nc2cccc(F)c2)cc1 (centres undefined) | inactive: -5.07%
25 | COc1ccccc1OP(C)(=O)Nc1cc(Cl)ccc1C (centres undefined) | inactive: -4.28%
26 | Cc1cc(C)cc(OP(C)(N)=O)c1 (centres undefined) | inactive: -0.672%
27 | CCOC(=O)c1ccc(NP(C)(=O)Oc2ccccc2)cc1 (centres undefined) | inactive: 12%
28 | Cc1ccc(NP(C)(=O)Oc2ccccc2)c(C)c1 (centres undefined) | inactive: 7.38%
29 | COc1ccccc1OP(C)(=O)Nc1ccc(C)cc1 (centres undefined) | inactive: -12.7%
